Experimental data from patent US20210341482A1, “CANCER BIOMARKERS” (NOTTINGHAM UNIVERSITY HOSPITALS NHS TRUST, priority 2018, published 2021).

What was measured:
[1] = system: locally advanced breast cancer; experiment: 5-year relapse/disease free survival after neoadjuvant chemotherapy by adjuvant HER2 target therapy, NUH cohort; assay type: in vivo, human; settings: pre-NACT HER2+ cases that remained HER2+ post NACT (64/73)
[2] = system: ER+ locally advanced breast cancer; experiment: pCR after pre-operative anthracycline based combination chemotherapy, multicentre transcript cohort stratified by SPAG5 mRNA; assay type: in vivo, human; settings: Multicentre neoadjuvant chemotherapy (MC-NACT) cohort (n = 1073); yes vs no
Method: C) Assessment of Complete Pathological Response (pCR; Complete Disappearance of Tumour Cells in Breast and Lymph Node) after Receiving Pre-Operative Anthracycline Based Combination Chemotherapy Therapy for ER+ Locally Advanced Breast Cancer Patients (i.e. Examples 39 to 44)
The association between SPAG5 mRNA expression and pCR was evaluated in 2208 patients with locally advanced BC who received anthracycline based combination chemotherapy (E, AC, or FEC) with (+) or without (−) taxane (T). SPAG5 mRNA expression data has been retrieved from 11 publically available gene expression microarray datasets at the National Centre for Biotechnology Information Gene Expression Omnibus using the following access numbers.
The patients had received the following pre-operative chemotherapy.
SPAG5 gene expression data of each database were converted to a common scale (median equal to 0 and standard deviation equal to 1) in order to merge all of the studies data that used the same platform and create combined cohorts. To convert to a common scale each sample in the data was standardised to a mean of 0 and standard deviation of 1. […] Databases using same platform have been merged and the median expression was calculated. The median expression of SPAG5 transcript for each platform has been calculated and values equal to or higher than the median coded as +1 (overexpression). […]

Substance | 5-year DFS [1] [%] | OR for pCR, multivariable logistic regression [2]
HER2 Target therapy: adjuvant HER2 target therapy for one year; Trastuzumab according to the cohort method | 75 | 
Trastuzumab NACT: Trastuzumab given as neoadjuvant therapy, covariate of the regression |  | 0.66
